What was measured:
[1] = biological target: NMDA receptor (noncompetitive MK-801 site), rat spinal cord; experiment: [3H]MK-801 displacement, rat spinal cord synaptic membranes; assay type: binding; details: read-out: [3H]MK-801 Ki, spinal cord; mean ± SEM, 2 to 4 observations; CNS region spinal cord
[2] = test system: NMDA receptors; details: Gorman et al.; cited from earlier work

Row | Structure (SMILES) | Ki [1] [µM] | binding to NMDA receptors [2]
1 | COc1ccc2c(c1)[C@]13CCCC[C@@H]1[C@H](C2)N(C)CC3 [Dextromethorphan] | 0.8 ± 0.6 | 
2 | CN1CC[C@]23c4c5ccc(O)c4O[C@H]2C(=O)CC[C@H]3[C@H]1C5 [Hydromorphone] |  | do not bind to NMDA receptors

— patent US6008258A, “d-methadone, a nonopioid analegesic” (priority 1998, dated 1999)
